Experimental data: patent US11529359B2, “Use of GABAA receptor modulators for treatment of itch” (UNIVERSITÄT ZÜRICH, priority 2016, dated 2022)

System: chloroquine-induced itch
Test: chloroquine-induced itch (cheek injection) in wild-type mice
Format: in vivo, wild-type C57BL6/J mice
Conditions: per oral 0.01-3 mg/kg 90 min before 100 μg chloroquine; 30 min
Protocol: The same doses as in FIGS. 4A-4C of TPA023B were injected 90 minutes before a cheek injection of 100 μg chloroquine (FIGS. 5A & 5B). […] In order to assess the antipruritic effect of TPA023B in a clinically relevant disease, the contact dermatitis model of chronic itch was used. […] Thus, TPA023B is, in accordance with the other findings of the inventors, suitable as an antipruritic substance.
A class of molecules, separate from benzodiazepines, that potentiate the GABAA receptors are the neurosteroids, such as ganaxolone (Carter et al., J Pharmacol Exp Ther. 1997 March; 280(3):1284-95). In order to confirm the GABAA receptor as a target for treatment of pruritus, the inventors pretreated wild-type C57BL/6J mice with 30 mg/kg intraperitoneal ganaxolone (FIGS. 10A & 10B).
Acute itch was assessed in mice that received intradermal microinjections of pruritogens or 0.9% saline into the right cheek, which had been shaved at least one day before the experiment. […] Videos were analyzed off-line. Scratching of the hind paw directed to the ipsilateral cheek was counted in bouts, with one scratching bout defined as an instance when the mouse lifted its paw to scratch until it returned the paw to the cage floor. In case of experiments in which the pruritogen was injected in the skin of the thigh, the time spent biting the injected skin area was counted in s/min as a measure of itch.

CC(C)(O)c1cnn2c(-c3ccc(F)c(-c4c(F)cccc4C#N)c3)cnc2n1 [TPA023B, 6,2′-difluoro-5′-[3-(1-hydroxy-1-methylethyl)imidazo[1,2-b][1,2,4]triazin-7-yl]biphenyl-2-carbonitrile]
scratching bouts, chloroquine-induced itch: dose-dependent reduction of scratching bouts
